These results are taken from publication PMC4902270 (The Biochemical journal, 2015).

Sequences of proteins named here, by UniProt entry; tags and fusion partners are left off.
UniProt B0LPN4, whole entry: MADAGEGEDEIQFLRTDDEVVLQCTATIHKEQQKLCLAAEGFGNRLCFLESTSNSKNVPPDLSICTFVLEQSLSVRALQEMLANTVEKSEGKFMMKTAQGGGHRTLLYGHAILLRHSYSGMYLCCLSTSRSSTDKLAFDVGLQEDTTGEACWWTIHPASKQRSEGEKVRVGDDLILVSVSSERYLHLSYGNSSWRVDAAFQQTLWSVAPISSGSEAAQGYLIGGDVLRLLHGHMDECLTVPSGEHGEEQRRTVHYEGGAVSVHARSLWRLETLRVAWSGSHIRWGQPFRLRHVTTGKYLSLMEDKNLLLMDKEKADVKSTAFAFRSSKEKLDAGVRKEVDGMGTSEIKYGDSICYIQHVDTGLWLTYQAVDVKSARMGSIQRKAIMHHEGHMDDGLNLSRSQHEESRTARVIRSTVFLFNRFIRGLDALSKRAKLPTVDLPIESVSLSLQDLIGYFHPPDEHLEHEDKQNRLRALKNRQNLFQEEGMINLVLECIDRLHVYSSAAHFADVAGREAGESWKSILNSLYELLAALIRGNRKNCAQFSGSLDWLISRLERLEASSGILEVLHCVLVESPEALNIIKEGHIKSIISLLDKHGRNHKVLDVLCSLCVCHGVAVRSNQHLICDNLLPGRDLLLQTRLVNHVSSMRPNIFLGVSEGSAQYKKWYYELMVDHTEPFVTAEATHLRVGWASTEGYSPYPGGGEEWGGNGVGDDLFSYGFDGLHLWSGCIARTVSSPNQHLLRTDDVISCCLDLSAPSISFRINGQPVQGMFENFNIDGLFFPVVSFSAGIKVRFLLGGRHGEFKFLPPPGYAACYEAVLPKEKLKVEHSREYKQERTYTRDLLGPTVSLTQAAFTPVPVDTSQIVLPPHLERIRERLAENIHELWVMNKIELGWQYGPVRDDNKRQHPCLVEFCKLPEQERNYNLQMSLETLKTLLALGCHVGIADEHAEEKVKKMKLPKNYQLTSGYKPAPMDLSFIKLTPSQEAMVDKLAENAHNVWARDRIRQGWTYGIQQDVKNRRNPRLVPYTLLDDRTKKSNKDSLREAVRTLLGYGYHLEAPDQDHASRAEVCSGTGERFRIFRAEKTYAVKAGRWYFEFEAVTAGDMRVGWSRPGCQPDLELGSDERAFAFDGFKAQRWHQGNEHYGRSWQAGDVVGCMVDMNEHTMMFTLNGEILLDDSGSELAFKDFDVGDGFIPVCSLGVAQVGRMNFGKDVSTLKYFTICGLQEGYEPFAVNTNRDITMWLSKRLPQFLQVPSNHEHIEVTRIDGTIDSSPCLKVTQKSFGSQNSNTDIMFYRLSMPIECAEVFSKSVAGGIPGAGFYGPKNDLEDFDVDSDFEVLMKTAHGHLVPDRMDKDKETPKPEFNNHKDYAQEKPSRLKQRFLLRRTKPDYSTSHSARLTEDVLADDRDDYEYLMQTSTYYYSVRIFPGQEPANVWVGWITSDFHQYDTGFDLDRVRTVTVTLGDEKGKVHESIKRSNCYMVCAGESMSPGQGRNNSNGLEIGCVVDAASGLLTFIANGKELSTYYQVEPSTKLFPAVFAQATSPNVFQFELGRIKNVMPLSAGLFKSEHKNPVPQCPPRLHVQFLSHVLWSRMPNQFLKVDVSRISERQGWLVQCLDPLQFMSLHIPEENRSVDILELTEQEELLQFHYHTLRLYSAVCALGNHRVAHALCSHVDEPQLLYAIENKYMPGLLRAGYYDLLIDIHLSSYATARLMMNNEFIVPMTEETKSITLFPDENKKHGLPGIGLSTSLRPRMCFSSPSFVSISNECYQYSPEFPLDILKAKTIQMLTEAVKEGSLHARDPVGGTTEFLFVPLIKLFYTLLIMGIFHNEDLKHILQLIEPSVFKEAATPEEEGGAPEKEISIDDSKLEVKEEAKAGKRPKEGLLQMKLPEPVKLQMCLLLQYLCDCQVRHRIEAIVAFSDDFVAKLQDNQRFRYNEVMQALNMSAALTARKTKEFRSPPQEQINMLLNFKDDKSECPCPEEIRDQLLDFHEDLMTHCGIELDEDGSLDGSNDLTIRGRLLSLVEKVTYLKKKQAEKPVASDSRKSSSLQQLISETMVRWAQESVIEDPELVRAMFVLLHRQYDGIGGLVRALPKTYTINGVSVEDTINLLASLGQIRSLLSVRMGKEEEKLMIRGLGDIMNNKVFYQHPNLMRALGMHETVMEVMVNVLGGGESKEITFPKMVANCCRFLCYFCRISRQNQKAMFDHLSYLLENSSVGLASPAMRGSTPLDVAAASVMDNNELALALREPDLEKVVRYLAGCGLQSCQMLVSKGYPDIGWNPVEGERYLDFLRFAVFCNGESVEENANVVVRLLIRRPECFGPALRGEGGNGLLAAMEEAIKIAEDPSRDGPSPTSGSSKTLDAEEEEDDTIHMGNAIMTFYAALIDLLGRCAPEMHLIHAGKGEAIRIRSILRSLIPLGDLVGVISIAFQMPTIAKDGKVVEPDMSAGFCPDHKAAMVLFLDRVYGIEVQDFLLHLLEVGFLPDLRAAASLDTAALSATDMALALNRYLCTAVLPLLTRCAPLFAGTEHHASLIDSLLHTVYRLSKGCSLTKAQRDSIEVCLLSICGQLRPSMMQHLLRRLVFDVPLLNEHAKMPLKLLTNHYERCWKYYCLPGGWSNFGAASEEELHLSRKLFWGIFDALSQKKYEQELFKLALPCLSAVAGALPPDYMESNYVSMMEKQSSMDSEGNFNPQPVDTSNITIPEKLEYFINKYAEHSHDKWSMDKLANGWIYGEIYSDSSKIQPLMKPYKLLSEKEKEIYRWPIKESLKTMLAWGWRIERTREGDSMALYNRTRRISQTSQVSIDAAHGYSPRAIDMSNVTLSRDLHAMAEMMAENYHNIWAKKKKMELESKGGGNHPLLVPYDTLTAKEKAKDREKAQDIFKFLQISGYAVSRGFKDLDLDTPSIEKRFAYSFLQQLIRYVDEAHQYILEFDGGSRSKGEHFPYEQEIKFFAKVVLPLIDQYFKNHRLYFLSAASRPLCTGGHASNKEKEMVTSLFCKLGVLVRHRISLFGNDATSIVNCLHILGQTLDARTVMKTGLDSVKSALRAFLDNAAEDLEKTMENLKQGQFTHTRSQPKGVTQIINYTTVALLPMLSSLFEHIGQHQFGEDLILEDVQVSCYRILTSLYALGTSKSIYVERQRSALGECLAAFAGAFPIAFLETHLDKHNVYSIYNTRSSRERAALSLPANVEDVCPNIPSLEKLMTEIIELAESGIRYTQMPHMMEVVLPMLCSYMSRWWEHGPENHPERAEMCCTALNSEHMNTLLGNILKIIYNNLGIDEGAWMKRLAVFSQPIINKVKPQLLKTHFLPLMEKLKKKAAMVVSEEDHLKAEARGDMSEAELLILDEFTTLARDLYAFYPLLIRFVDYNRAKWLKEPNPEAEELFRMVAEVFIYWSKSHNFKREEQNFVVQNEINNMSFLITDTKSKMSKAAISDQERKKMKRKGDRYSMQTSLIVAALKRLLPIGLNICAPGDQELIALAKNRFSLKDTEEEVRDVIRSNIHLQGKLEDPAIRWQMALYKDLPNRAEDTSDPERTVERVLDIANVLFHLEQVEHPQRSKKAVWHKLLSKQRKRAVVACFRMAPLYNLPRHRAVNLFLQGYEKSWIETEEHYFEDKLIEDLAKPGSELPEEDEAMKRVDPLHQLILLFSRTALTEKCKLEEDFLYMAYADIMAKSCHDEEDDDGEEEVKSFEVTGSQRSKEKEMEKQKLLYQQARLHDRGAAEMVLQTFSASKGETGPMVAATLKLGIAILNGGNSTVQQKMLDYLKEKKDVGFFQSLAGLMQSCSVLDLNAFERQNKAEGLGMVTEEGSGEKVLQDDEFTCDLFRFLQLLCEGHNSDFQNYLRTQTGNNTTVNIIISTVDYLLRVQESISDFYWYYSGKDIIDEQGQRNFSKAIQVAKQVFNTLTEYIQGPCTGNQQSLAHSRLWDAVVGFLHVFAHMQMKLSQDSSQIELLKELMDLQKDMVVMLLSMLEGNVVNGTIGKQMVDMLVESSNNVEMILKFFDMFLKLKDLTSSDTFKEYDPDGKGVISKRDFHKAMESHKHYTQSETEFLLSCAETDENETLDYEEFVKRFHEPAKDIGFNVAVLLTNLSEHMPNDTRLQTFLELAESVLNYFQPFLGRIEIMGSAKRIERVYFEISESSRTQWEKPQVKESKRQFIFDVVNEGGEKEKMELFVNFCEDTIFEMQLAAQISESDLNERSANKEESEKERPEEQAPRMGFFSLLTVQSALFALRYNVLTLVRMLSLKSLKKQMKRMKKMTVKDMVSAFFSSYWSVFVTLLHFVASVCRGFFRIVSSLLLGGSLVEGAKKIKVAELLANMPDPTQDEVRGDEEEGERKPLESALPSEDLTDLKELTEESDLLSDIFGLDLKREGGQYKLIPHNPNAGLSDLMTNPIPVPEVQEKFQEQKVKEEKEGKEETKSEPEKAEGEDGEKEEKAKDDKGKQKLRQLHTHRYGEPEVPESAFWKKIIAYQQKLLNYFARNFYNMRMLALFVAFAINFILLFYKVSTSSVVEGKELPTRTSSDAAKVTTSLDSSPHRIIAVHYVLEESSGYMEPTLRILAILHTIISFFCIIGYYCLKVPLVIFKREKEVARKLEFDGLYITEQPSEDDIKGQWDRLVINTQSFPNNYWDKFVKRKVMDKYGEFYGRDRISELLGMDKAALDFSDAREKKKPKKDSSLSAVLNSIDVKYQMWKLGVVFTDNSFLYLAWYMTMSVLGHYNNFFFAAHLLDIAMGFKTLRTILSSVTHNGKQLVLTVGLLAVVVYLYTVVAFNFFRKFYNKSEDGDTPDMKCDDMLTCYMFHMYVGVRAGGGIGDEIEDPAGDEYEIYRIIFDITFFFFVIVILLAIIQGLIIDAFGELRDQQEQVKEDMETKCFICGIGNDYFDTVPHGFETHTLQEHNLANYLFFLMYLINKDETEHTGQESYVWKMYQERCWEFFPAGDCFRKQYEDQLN

This experiment concerns the target cardiac ryanodine receptor (RyR2) (Rattus norvegicus, UniProt B0LPN4).

With `COc1ccccc1OCCNC[C@@H](O)COc1cccc2[nH]c3ccccc3c12` [R-carvedilol], the “single-channel recording in planar lipid bilayers after 1 h pre-incubation with” value came out at 1 µM.
